“Also recorded” adds a separate entry of the source.
Tests used:
A375SM-Luc705-B cells [1] = test: Luciferase splice-correction assay with albumin conjugates; format: cell-based; conditions: for luciferase activity: 25-200 nM, 72 h
Procedure: Oligonucleotide Treatment of Cells and Luciferase Assay: A375SM-Luc705-B cells were seeded onto 12 well plates at 1×10^5 cells per well in medium containing 10% FBS. After 24 h, cells were rinsed, placed in OPTI-MEM (Invitrogen, Carlsbad, Calif., United States of America) and treated with free 623 oligonucleotide, various versions of the albumin-PEG-623 oligonucleotide conjugates, or 623 oligonucleotide complexed with LIPOFECTAMINE™ 2000 (Invitrogen, Carlsbad, Calif., United States of America) per manufacturer's instruction. After 4 h of treatment, FBS was added to each well to 1%. After 24 h, cells were washed with DMEM medium containing 10% FBS and incubated in DMEM supplemented with 1% FBS for 48 h prior to harvest. Activation of luciferase gene expression due to correction of splicing by oligonucleotide 623 was determined using a Luciferase assay kit (Promega, Madison, Wis., United States of America) on a Monolight 2010 instrument (Analytical Luminescence Laboratory, San Diego, Calif., United States of America)

[2] = system: A375 melanoma cells containing an inducible luciferase reporter gene; test: In vivo targeting, tumor luciferase by bioluminescence imaging; parameters: species or system SCID mice; conditions: compared to mice that received saline or free oligonucleotide
Procedure: Immunodeficient mice (SCID mice) were inoculated with A375 melanoma cells containing an inducible luciferase reporter gene in the right flank. […] However, upon effective delivery of splice shifting antisense oligonucleotide to the cell nucleus, the abnormal intron is spliced out and luciferase protein is produced. Therefore the reporter gene provides an effective readout for delivery of a SSO to a tumor in vivo.
The tumors were allowed to grow to a certain size and then the mice were injected with either saline; RGD-623; or free 623 oligonucleotide (SEQ ID NO: 1). After a period of incubation to allow the SSO to act, the mice were injected with luciferin and the activity of the luciferase in the tumors was monitored by bioluminescence imaging using an IVIS imaging system.

Micrococcal nuclease = Micrococcal nuclease (Staphylococcus aureus, UniProt P00644); test: Nuclease stability by polyacrylamide gel; format: in vitro ADME; conditions: 0-12 h, 37° C.
Procedure: Nuclease Stability: Micrococcal nuclease (4000 gel units) was added to solutions of 623-Tamra or RPA-623-Tamra and the samples were incubated for various periods of time at 37° C. The reactions were then stopped by the addition of EDTA (50 mM), and the fluorescent samples were analyzed on 10% polyacrylamide gels and examined under long-wavelength ultraviolet illumination to detect possible nucleolytic cleavage of the Tamra-labeled oligonucleotides.

A375SM-Luc705-B cells [3] = test: Confocal microscopy of live cells, albumin conjugates; format: cell-based; conditions: 100 nM
Procedure: Cellular Uptake and Confocal Microscopy: Cells were seeded onto either 12 well plates at 1×10^5 cells per well for cellular uptake measurements or in 12 well glass-bottom plates at 2×10^4 cells per well for live cell analysis by confocal microscopy. After treatment of cells with Tamra labeled oligonucleotide derivatives for 24 h, the cells were either lysed for measurement of Tamra fluorescence using a Nanodrop microfluorimeter (Nanodrop Technologies, Wilmington, Deleware, United States of America) or washed with DMEM containing 10% FBS and then placed in DMEM without phenol red, supplemented with 1% FBS, for confocal microscopy analysis. Co-localization of Tamra-labeled oligonucleotides with Alexa 488 labeled Transferrin or Dextran (Molecular Probes, Beaverton, Oreg., United States of America) in live cell was also examined by confocal microscopy. An Olympus confocal microscope with a 60× objective lens was used, and the data were processed using Fluoview software (Olympus, Center Valley, Pa., United States of America) as described in Example 1.

A375SM-Luc705-B cells [4] = system: A375SM-Luc705-B cells
[5] = Molecular size by size-exclusion FPLC and quasi-elastic light scattering; format: physicochemical
A375SM-Luc705-B cells [6] = system: A375SM-Luc705-B cells; remark: listed apart in the source

## CPA-623: albumin-623 conjugate where the PEG chains were terminated with cysteine
A375SM-Luc705-B cells [1]
  luciferase activity: failed to achieve an effect

## RGD-623: RGD conjugate of 623 injected into tumor-bearing mice; FIG. 21 legend calls it RGD-PEG-HSA-623
[2]
  luciferase activity in the tumor: substantial increase in luciferase activity

## RPA-623-Tamra: RPA-623 in which the 623-SH included a 3′-Tamra fluorophore
Micrococcal nuclease
  stability to micrococcal nuclease: no loss of Tamra-labeled oligonucleotide
A375SM-Luc705-B cells [3]; 2 h
  fluorescence overlap with dextran: substantial overlap
  fluorescence overlap with transferrin: little overlap
A375SM-Luc705-B cells [3]; 24 h
  fluorescence overlap with transferrin and dextran: fluorescence overlap in both cases
A375SM-Luc705-B cells [3]; live cells, 24 h
  intracellular Tamra fluorescence: substantial intracellular Tamra fluorescence
  nuclear accumulation of Tamra fluorescence: as well as in the nucleus; also recorded: Nuclear accumulation of Tamra fluorescence was observed
A375SM-Luc705-B cells [3]; live cells, 24 h, listed as RGD-PEG-HSA-623-Tamra conjugate
  nuclear accumulation of Tamra fluorescence: Tamra fluorophore accumulated in nuclei

## RPA-623: RGD-PEG-human serum albumin conjugate carrying 623 oligonucleotides through cleavable disulfide
A375SM-Luc705-B cells [4]
  long-term toxicity (colony formation): little acute or long-term toxicity
[5]
  average radius relative to unmodified albumin carrier: about 2.7 times
[5]; estimated
  hydrodynamic radius: approximately 6 nm
A375SM-Luc705-B cells [6]
  acute (short-term) toxicity: little acute or long-term toxicity
A375SM-Luc705-B cells [1]
  magnitude of the effect compared with LIPOFECTAMINE™ complex: almost equaled that of the LIPOFECTAMINE™ complex
  luciferase activity: concentration-dependent increase in luciferase activity
A375SM-Luc705-B cells [1]; 200 nM
  time course of luciferase activation: rose gradually, attained a maximum at 72 h post-treatment, and then gradually declined
A375SM-Luc705-B cells [1]; 200 nM, post-treatment
  time of maximum luciferase activity: 72 h

## RPA-MM: RGD-PEG-albumin conjugate with mismatched oligonucleotide (SEQ ID NO: 2)
A375SM-Luc705-B cells [1]
  luciferase activity: failed to achieve an effect

— US20100280098A1, “RECEPTOR TARGETED OLIGONUCLEOTIDES” (priority 2007, published 2010)
